US20020187534A1, “Treating cancer by increasing intracellular malonyl CoA levels” (priority 1999, published 2002)

Tested on: CPT-1
Experiment: Carnitine palmitoyltransferase-1 (CPT-1) assay in permeabilized MCF-7 cells
Assay type: cell-based, human
Procedure: MCF-7 cells were plated in RPMI 1640 with 10% fetal bovine serum at 1×10^6 cells in six-well plates in triplicate. Following overnight incubation at 37° C., medium was removed and replaced with 700 μl of assay medium consisting of: 50 mM imidazole, 70 mM KCl, 80 mM sucrose, 1 mM EGTA, 2 mM MgCl2, 1 mM DTT, 1 mM KCN, 1 mM ATP, 0.1% fatty acid free bovine serum albumin, 70 μM palmitoyl-CoA, 0.25 μCi (methyl-^14C]L-camitine, 40 μg digitonin with or without 20 μM malonyl-CoA or other indicated inhibitors.
After incubation for 3 or 6 minutes at 37° C., the reaction was stopped by the addition of 500 μl of ice-cold 4 M perchloric acid. Cells were then harvested and centrifuged at 10,000× g for 5 min. The pellet was washed with 500 μl ice cold perchloric acid and centrifuged again. The resulting pellet was resuspended in 800 μl dH2O and extracted with 150 μl of butanol. The butanol phase was counted by liquid scintillation and represents the acylcarnitine derivative.

Compound: C/C=C/C/C=C/CCC(=O)[C@H]1O[C@H]1C(N)=O [cerulenin]
- direct inhibition of CPT-1: does not inhibit CPT-1 directly
- CPT-1 activity versus vehicle control (10 μg/ml): slight, but not statistically significant increase
